This is an account of results in ChEMBL document CHEMBL1124268, “Approaches to protection against nerve agent poisoning. (Naphthylvinyl)pyridine derivatives as potential antidotes” (1988).

For this data set, the system named is Cavia porcellus. Description: Protective ratio - quotient of LD50 of the treated group (guinea pig) over that of soman alone at given dose 92 (uM/Kg, id). Conditions: in vivo, other.

Structures are written as SMILES.

In the case of `C[n+]1ccc(/C=C/c2cccc3ccccc23)cc1.[Cl-]`, the Protective ratio was 76.
